The term MIC denotes the lowest concentration that inhibits growth of the organism.

These results are taken from patent US20210070747A1, “2(1H)-QUINOLINONE DERIVATIVE” (priority 2017, published 2021).

Molecules are shown by their SMILES. Values after ≈ are worked out from the molar mass of the structure shown.

The test system of one assay is E. Coli ATCC 25922. The assay is described as follows: Test for evaluating antibacterial activity (E. coli), broth microdilution MIC. The conditions noted are these: Escherichia coli, ATCC25922, 18 h, read-out: MIC E. Coli ATCC 25922. The class given is cell-based. A general note: Broth dilution looks for growth in wells or tubes with falling amounts of substance.
Assay [1] relates to N. gonorrhoeae ATCC 49226. The assay is described as follows: Test for evaluating antibacterial activity (N. gonorrhoeae), broth microdilution MIC. The class given is cell-based. The conditions noted are these: Neisseria gonorrhoeae, ATCC49226, 24 h, read-out: MIC N. gonorrhoeae ATCC 49226.

`CCCCCN(CCCCC)Cc1cc(C(=O)O)ccc1NC(=O)c1cc2cc(F)cc(NC)c2[nH]c1=O` [Example 101, 3-[(dipentylamino)methyl]-4-{[6-fluoro-8-(methylamino)-2-oxo-1,2-dihydroquinoline-3-carbonyl]amino} benzoic acid]: the MIC with E. Coli ATCC 25922 was 16 µg/mL (≈ 30.5 µM); in assay [1], 0.03 µg/mL (≈ 0.0572 µM).

On to `CNc1cc(F)cc2cc(C(=O)Nc3ccc(CO)cc3CN(CCO)C3CCCCC3)c(=O)[nH]c12` [Example 124, N-[2-{[cyclohexyl(2-hydroxyethyl)amino]methyl}-4-(hydroxymethyl)phenyl]-6-fluoro-8-(methylamino)-2-oxo-1,2-dihydroquinoline-3-carboxamide], for which, in assay [1], the MIC came out at 0.12 µg/mL (≈ 0.242 µM).
